According to PubChem BioAssay AID485347 (National Center for Advancing Translational Sciences (NCATS), 2010):
This is a selection; strong and weak results do not stand in their true shares. Some structures show a salt or complex split into parts, the way the source records it. The source made the active and inactive calls.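 How the source made its calls: active means potentiation over 3 SD above the plate norm (cut at about 30% in these data); inactive means the rest.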

Amino acid sequences for entries named in this document (tags omitted).
UniProt P14416, whole entry: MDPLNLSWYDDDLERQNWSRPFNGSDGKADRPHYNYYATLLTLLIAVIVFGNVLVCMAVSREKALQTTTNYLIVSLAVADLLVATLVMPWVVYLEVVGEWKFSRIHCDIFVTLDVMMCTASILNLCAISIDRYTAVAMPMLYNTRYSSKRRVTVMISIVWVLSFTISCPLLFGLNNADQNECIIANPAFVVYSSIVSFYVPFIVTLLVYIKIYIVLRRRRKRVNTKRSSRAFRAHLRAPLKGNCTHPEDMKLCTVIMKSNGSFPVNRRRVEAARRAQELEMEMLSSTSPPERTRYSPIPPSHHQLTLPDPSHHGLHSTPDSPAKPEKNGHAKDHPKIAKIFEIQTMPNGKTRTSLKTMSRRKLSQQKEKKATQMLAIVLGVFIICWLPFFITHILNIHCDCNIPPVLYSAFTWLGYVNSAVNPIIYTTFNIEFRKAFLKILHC

What follows are compounds tested against D(2) dopamine receptor (Homo sapiens) (UniProt P14416) (assay: HTS Assay for Positive Allosteric Modulators of the Human D2 Dopamine Receptor: Primary Screen for Potentiators). Settings: HEK293 T-REx D2, calcium flux, EC20 dopamine potentiation; at 10 µM; stronger effect = higher value.
From the text: NIH Chemical Genomics Center [NCGC] NIH Molecular Libraries Probe Centers Network [MLPCN] MLPCN Grant: NS064831-01 Assay Submitter (PI): David Sibley Dopamine receptors (DARs) are involved in the etiology and/or therapy of a number of neuropsychiatric and endocrine disorders. For instance, all receptor-based antiparkinsonian drugs work via stimulating the D2 DAR subtype whereas all FDA-approved antipsychotic agents are antagonists of this receptor. […] There are three different types of allosteric modulators that we are seeking, two of which will stimulate or augment receptor signaling, allosteric agonists and potentiators, while the third, allosteric antagonists, will attenuate receptor signaling. The present primary screening assay measures compound potentiation of an EC20 dopamine response by tracking calcium flux in a […], inducible Hek293 Trex D2 cell line.
Freshly passaged cells are plated in 1536 well black, clear bottom plates at a density of 4000 cells/well in 3 ul of complete media containing 1x tetracycline inducer. After an overnight incubation at 30 C in 5% CO2, cells are loaded with 2 ul of the no wash Calcium Assay Kit (ABD Bioquest) and incubated at room temperature for 30 to 90 minutes. A 10 cycle (1 second/cycle) baseline measurement is taken and then the FDSS online 1536 pintool delivers 23 nl of compound library (as well as dopamine controls) to the plate. The plate is measured for kinetically at 1 cycle/sec for 180 seconds and is considered to be the agonist portion of the assay (eg, compounds which activate a positive calcium response during this portion are flagged as potential agonists). Following the 180 second read, 1 ul of an EC20 of dopamine is delivered by an onboard pipette head. Measurements are taken kinetically for an additional 180 seconds.
Further: 0% is about no effect.

SMILES | potentiation
c1ccc(CN2CCC(Nc3ccccc3)CC2)cc1 | inactive: -26.1%
CN(C)C1(CNC(=O)c2cccc(C#N)c2)CCCCC1 | inactive: 12.5%
CCOC(=O)C(CC)C1=NC(C)(C)Cc2ccccc21.O=[N+]([O-])c1cc([N+](=O)[O-])c(O)c([N+](=O)[O-])c1 (configuration not stated) | inactive: 2.64%
O=C(NCC1(N2CCOCC2)CCCCC1)c1ccc([N+](=O)[O-])cc1 | inactive: 5.13%
N#Cc1ccc(C(=O)NCC2(N3CCCCC3)CCCCC2)cc1 | inactive: -3.04%
O=C(NCC1(N2CCOCC2)CCCCC1)c1ccccc1[N+](=O)[O-] | inactive: 3.74%
CCc1cc(C(=O)NCC2(N3CCCCC3)CCCCC2)sc1C | inactive: -22.7%
O=C(OC1CN2CCC1CC2)C1c2ccccc2C=Cc2ccccc21 (configuration not stated) | inactive: 1.7%
O=C(O)c1cccc(Nc2c([N+](=O)[O-])cc([N+](=O)[O-])cc2[N+](=O)[O-])c1 | inactive: 4.87%
N/C(=N\O)c1c(N)no[n+]1[O-] | inactive: -10.4%
CCOC(=O)N1CCC(Nc2ccc(C)cc2)CC1 | inactive: 13.1%
COc1ccc(C(=O)NCC2(N3CCOCC3)CCCCC2)cc1OC | inactive: -4.96%
O=C(NCC1(N2CCOCC2)CCCCC1)c1cc(Br)ccc1Cl | inactive: 6.39%
CCCOc1ccc(C)cc1CN(CCCl)CCCl | inactive: -4.06%
CN1CCC(Nc2ccc(Cl)cc2)CC1 | inactive: -7.95%
CCC(CO)(C(=O)OC1CN2CCC1CC2)c1ccccc1 (configuration not stated) | inactive: 4.51%
COc1cc(OC)cc(C(=O)NCC2(N3CCOCC3)CCCCC2)c1 | inactive: -3.14%
COc1cc(C(=O)NCC2(N3CCOCC3)CCCCC2)cc(OC)c1OC | inactive: -3.82%
COc1cccc(C(=O)N(c2cc(C)cc(C)c2)C2CCN(C(=O)OC(C)(C)C)CC2)c1 | inactive: 16.5%
CCCOc1ccc(C(=O)NCC2(N(C)C)CCCCC2)cc1 | inactive: -11.5%
CC(C)(C)OC(=O)N1CCC(Nc2ccccc2)CC1 | inactive: -0.489%
O=C(O)C1(Nc2ccccc2)CCN(Cc2ccccc2)CC1 | inactive: -12.6%
CCOc1ncccc1C(=O)NCC1(N2CCOCC2)CCCCC1 | inactive: -10.5%
CN1CCC(Nc2ccc(F)c(Cl)c2)CC1 | inactive: -9.87%
O=C(NCC1(N2CCCCC2)CCCCC1)c1ccco1 | inactive: 1.14%
CC(C)(C)c1ccc(C(=O)NCC2(N3CCOCC3)CCCCC2)cc1 | inactive: -20.9%

SMILES | potentiation
CCN1CCC(Nc2cccc(F)c2)CC1 | inactive: -9.39%
Cc1ccc(C(=O)NCC2(N3CCCCC3)CCCCC2)o1 | inactive: 10.1%
Fc1ccccc1NC1CCN(Cc2ccccc2)CC1 | inactive: -15.4%
COc1cc(OC)cc(C(=O)NCC2(N3CCCCC3)CCCCC2)c1 | inactive: 22.8%
CN(C)C1(CNC(=O)c2ccc(C(C)(C)C)cc2)CCCCC1 | inactive: -23.3%
CCOC(=O)N1CCC(Nc2cccc(C)c2)CC1 | inactive: -9.51%
COc1cc(C(=O)NCC2(N(C)C)CCCCC2)ccc1OC(F)F | inactive: -26.4%
Cc1ccc(OCC(C)C)c(CN(CCCl)CCCl)c1 | inactive: -10.5%
COc1ccc(NC2CCN(CCc3ccccc3)CC2)c(OC)c1 | inactive: -29.8%
CCOC(=O)N1CCC(Nc2ccc(F)cc2)CC1 | inactive: 4.97%
COc1ccccc1C(=O)NCC1(N2CCOCC2)CCCCC1 | inactive: -7.8%
CCOc1ccc(C)cc1CN(CCCl)CCCl | inactive: -9.42%
O=C(NCC1(N2CCOCC2)CCCCC1)c1ccc(Cl)cc1 | inactive: 9.12%
CCOC(=O)N1CCC(Nc2ccc(OC)cc2)CC1 | inactive: -3.91%
O=C(NCC1(N2CCCCC2)CCCCC1)c1ccc(Cl)s1 | inactive: -15.9%
N#CC1(Nc2ccccc2)CCN(Cc2ccccc2)CC1 | inactive: -0.171%
O=C(OC1CN2CCC1CC2)C1c2ccccc2Oc2ccccc21 (configuration not stated) | inactive: 17.2%
COc1ccc(Cl)cc1C(=O)NCC1(N2CCOCC2)CCCCC1 | inactive: 5.72%
O=C(NCC1(N2CCOCC2)CCCCC1)c1cc2ccccc2o1 | inactive: 22.9%
O=C(NCC1(N2CCCCC2)CCCCC1)c1ccc(Cl)nc1 | inactive: -10.3%
Cc1cc(C)cc(N(C(=O)c2ccccc2)C2CCN(C(=O)OC(C)(C)C)CC2)c1 | inactive: 1.7%
O=C(NCC1(N2CCCCC2)CCCCC1)c1ccc(=O)[nH]c1 | inactive: 0.152%
O=C(NCC1(N2CCCCC2)CCCCC1)c1cccs1 | inactive: 9.43%
COc1ccc(C(=O)NCC2(N3CCCCC3)CCCCC2)cc1 | inactive: 19.8%
CC(C)(C)OC(=O)N1CCC(N(C(=O)c2ccccc2)c2ccc(F)cc2)CC1 | inactive: -4.57%
COc1ccc(C(=O)NCC2(N3CCCCC3)CCCCC2)c(OC)c1OC | inactive: 8.52%

SMILES | potentiation
CCCCOc1ccccc1C(=O)NCC1(N2CCOCC2)CCCCC1 | inactive: -25.9%
O=C(NCC1(N2CCOCC2)CCCCC1)c1ccccc1Br | inactive: 3.49%
CCCOc1ccc(C(=O)NCC2(N(C)C)CCCCC2)cc1OC | inactive: -7.45%
COc1ccc2c(c1O)-c1c(O)c(OC)cc3c1[C@H](C2)[N+](C)(C)CC3.O=[N+]([O-])c1cc([N+](=O)[O-])c([O-])c([N+](=O)[O-])c1[O-] | inactive: -4.96%
O=C(NCC1(N2CCCCC2)CCCCC1)c1cncc(Br)c1 | inactive: -9.2%
O=C(OC1CN2CCC1CC2)c1ccc([N+](=O)[O-])cc1 (configuration not stated) | inactive: -9.01%
COc1cc(OC)c(C(=O)NCC2(N(C)C)CCCCC2)cc1OC | inactive: -4.82%
COc1ccc(CN(CCCl)CCCl)cc1Cl | inactive: 12.3%
O=[N+]([O-])c1cc([N+](=O)[O-])c(OC2CCCCC2O)c([N+](=O)[O-])c1 (configuration not stated) | inactive: -1.46%
CN(C)c1cccc(C(=O)NCC2(N3CCCCC3)CCCCC2)c1 | inactive: -19.6%
CC(C)c1ccc(NC2CCN(C(=O)OC(C)(C)C)CC2)cc1 | inactive: 12.8%
CN1CCN(CCOC(=O)C(O)(c2ccccc2)c2ccccc2)CC1 | inactive: -1.69%
CC(C)c1ccc(C(=O)NCC2(N3CCOCC3)CCCCC2)cc1 | inactive: -2.07%
COc1ccc(NC2CCN(C(=O)OC(C)(C)C)CC2)cc1 | inactive: -0.342%
COc1cc(C(=O)NCC2(N3CCCCC3)CCCCC2)ccc1OC(F)F | inactive: -24.9%
O=C(NCC1(N2CCOCC2)CCCCC1)c1cc(=O)[nH]c2ccccc12 | inactive: 5.91%
CCCOc1cccc(C(=O)NCC2(N3CCOCC3)CCCCC2)c1 | inactive: -21.5%
O=C(NCC1(N2CCCCC2)CCCCC1)c1cccc(C(F)(F)F)c1 | inactive: -6.43%
O=[N+]([O-])c1cc([N+](=O)[O-])c(NCC2CCS(=O)(=O)C2)c([N+](=O)[O-])c1 (configuration not stated) | inactive: 3.97%
CCOc1ccc(C(=O)NCC2(N3CCOCC3)CCCCC2)cc1 | inactive: 7.8%
O=C(NCC1(N2CCCCC2)CCCCC1)c1cccc([N+](=O)[O-])c1 | inactive: 7.48%
CSc1ccc(C(=O)NCC2(N3CCOCC3)CCCCC2)cc1 | inactive: -9.76%
CCN1CCC(Nc2ccc(Cl)cc2)CC1 | inactive: 6.62%
N#CC1(Nc2ccccc2)CCN(CCc2ccccc2)CC1 | inactive: -5.74%
O=C(NCC1(N2CCCCC2)CCCCC1)c1ccc(OC(F)F)cc1 | inactive: -5.47%
